Source: US20230019619A1, “TREATMENT OF A DISEASE OF THE GASTROINTESTINAL TRACT WITH A TLR MODULATOR” (BIORA THERAPEUTICS, INC., priority 2016, published 2023)

Tested on: distal transverse colon
Assay: Histology of distal transverse colon, TNBS porcine colitis model
Settings: Animal 2501, intra-rectal TNBS; exemplary image FIG. 50

trinitrobenzene sulfonic acid
histological section of a distal transverse colon: areas of necrosis and inflammation
